Patent US20120308548A1 (NOVA SOUTHEASTERN UNIVERSITY, priority 2010, published 2012)
Like-named read-outs stand apart in the source and are kept apart here.

What was measured:
HeLa cells = conditions: 18 hour MEGL expression, GFP control = 100% viability
Protocol: (§1) The effect of MEGL on cell viability was determined using 3-[4,5-dimethylthiazol-2-yl]-2,5-diphenyl-tetrazolium bromide (MTT, Sigma-Aldrich). For MTT assay, cells were suspended at a concentration of ˜4×10^4 cells (180 μl/well). 20 μl of MTT solution (5 mg/ml) was added for each well and incubate at 37° C. and 5% CO2 for about 2-5 hours for purple color development. Formazan precipitates were dissolved in DMSO for 30 minutes at 37° C., and the absorbance was measured at 570 nm.
(§2) Viability of cells transfected with MEGL construct. Three different cell lines (Hela, BHK-21, and HEK-AD293T) were plated in 96-well plates and transfected with either vector expressing green fluorescent protein, GFP (pEGFP-C3), or MEGL and GFP (pEGFP-C3-MEGL). After 18 hours of transfection, cells were treated with MTT and viability was determined by measuring the MTT absorbance at λ570 nm. Control absorbance was arbitrarily determined as 100% viability.

HEK-AD293T cells = system: HEK-AD293T cells
Protocol: as §1, §2

BHK-21 cells = system: BHK-21 cells
Protocol: as §1, §2

[1] = Protocol: Typically the overall reaction of α-ketobutyrate formation was performed in a total volume of 24 μl. The reaction contained 4 μl of reaction buffer [150 mM Tris-HCl (pH 8.0)], 4 μl of 1 mM pyridoxal phosphate (PLP), 3 μl of H2O, 6 μl of storage buffer, and 4 μl of diluted protein (0.4 μg), gently mixed and incubated at 37° C. for 5 minutes. The reaction was started by adding 1.93×10^5 cpm of 1-^14C-L-methionine (8814 cpm/nmol) and the contents were incubated at 37° C. for 15 minutes. The reaction was stopped by boiling for a minute, cooled on ice for 2 minutes and centrifuged at 3575 g for 7 minutes. A 2 μl aliquot was then chromatographed on a silica gel plate using 25% 20 mM phosphate buffer (pH 7.0) and 75% acetonitrile. Following chromatography, the TLC plates were dried, and exposed to x-ray film for 36-48 hours (Eastman-Kodak Co). The respective spots of substrate and products were cut out and radioactivity determined by liquid scintillation.
The activity was measured using different amounts of protein ranging from 0.1 to 1 μg and the reaction was performed for 5-30 minutes.
Reaction at each protein concentration was performed for 15 minutes at pH 8.0 according to the standard assay procedures described. Effect of time was tested using 0.4 μg of protein. […] Reaction at each temperature was performed for 15 minutes at pH 8.0 with 0.4 μg of protein according to the standard assay procedures described. […] Reactions were performed for 15 minutes at 37° C., using reaction buffers of various pHs that contained ingredients used in standard assays described. [The following buffers were used for various pHs: citrate reaction buffer (pH 4.0, 5.0, and 6.0); phosphate buffer (pH 6.0 and 7.0); Tris-Hcl (pH 8.0 and 9.0), and glycine (pH 9.0, 10.0, and 11.0)].

## methionine gamma lyase-2-aminobutyrate deaminase [MEGL-2ABD]
HeLa cells
  decrease in cell viability (cell death), MTT: 32 (+/−2.2) %
HEK-AD293T cells
  decrease in cell viability, MTT: 2.7 (+/−2.7) %
BHK-21 cells
  decrease in cell viability, MTT: 4.6 (+/−1.6) %
[1]
  Vmax: 0.67 mmol/min/mg
[1]; overall reaction of α-ketobutyrate formation
  Vmax: 0.00067 mmol/min/mg
[1]; pH <6.0
  enzyme activity at pH below 6.0: very low
[1]; read-out: Km for methionine, overall reaction of α-ketobutyrate formation, purified enzyme, 37° C., pH 8.0
  Km: 310 µM
